# Results as given in PubChem BioAssay AID651994 (Sanford-Burnham Center for Chemical Genomics, 2013).
# The list shows a part of the results, in another mix than the full data. Calls of active or inactive are those of the source.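 The calls were made as follows: active = mean cytotoxicity at 5 µM above about 25% (limit read from the data); inactive = the rest.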
# Assay: cell viability loss, Sufu-null reporter line – ATP luminescence, single concentration, cytotoxicity control for Gli-SUFU antagonist project, confirmation (AID 651994);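 also: cells exposed to compound overnight for roughly 16 to 18 hours; plate controls were DMSO wells with cells for no effect and medium without cells for full effect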
# Conditions: Sufu-KO-LIGHT cells cytotoxicity, at 5 µM, hits give high values
row,Compound,cytotoxicity
1,N#C/C(=C\c1ccc(N(CCBr)CCBr)cc1)C(N)=O,inactive: 20.4%
2,CC(=O)NC(SC(=S)N(C)C)C(Cl)(Cl)Cl (stereo not drawn),active: 31.6%
3,CN1CCCC(OC(=O)C(c2ccccc2)c2ccccc2)C1 (stereo not drawn),inactive: 19.7%
